# Measured affinities in a library of Ab-14 heavy chain variants

From the AlphaSeq antibody data of Engelhart et al. 2022 (doi:10.1038/s41597-022-01779-4), copy in the FLAb collection.

Binding partner: SARS-CoV-2 spike HR2 peptide, sequence PDVDLGDISGINAS.

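Phage display of a naive human antibody library on the peptide gave the parent. AAYL49 was designed without a model: most single CDR substitutions and a random sample of double and triple ones. AlphaSeq pools MATa yeast showing the antibodies with MATalpha yeast showing the peptide. After mating in shaken culture at 30 °C for 16 h, diploids were selected and their barcode pairs sequenced. The ratio of observed to expected reads was calibrated, replicate by replicate, on BCL2-family standards whose Kd was known from biolayer interferometry. Mating was done three times.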

The variants keep the light chain, the linker and the frameworks of Ab-14 (scFv order VH, a (GGGGS)3 linker, VL).
VH: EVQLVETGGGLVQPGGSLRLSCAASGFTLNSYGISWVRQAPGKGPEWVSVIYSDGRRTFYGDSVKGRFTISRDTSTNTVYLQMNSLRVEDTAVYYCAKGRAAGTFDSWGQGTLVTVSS
VL: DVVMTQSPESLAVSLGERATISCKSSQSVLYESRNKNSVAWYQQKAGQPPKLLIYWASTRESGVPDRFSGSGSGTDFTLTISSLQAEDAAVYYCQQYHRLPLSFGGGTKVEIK

The parent's heavy chain CDRs are GFTLNSYGIS, VIYSDGRRTFYGDSVK, GRAAGTFDS; each variant's own CDRs replace them letter for letter. Every variant below is changed at A102 of the VH (sequential numbering). Values are apparent Kd, the geometric mean of the replicates that gave a signal; lower means stronger binding. Where no diploid with the target was found in any replicate, the entry reads "nd": below detection, most likely a poor binder, though not proof of it. Empty control strains, which show no peptide, gave a signal in 15% of pairings with library AAYL49; the median was 11 µM and 95% of these signals were weaker than 680 nM. No background was subtracted. Parent in this assay: reference entry 4.4 nM, copy in this library 13 µM (one replicate of three).

CDR-H1	CDR-H2	CDR-H3	Kd (apparent)	seen in
GFTLNSYGIS	DIYSDGRRTFYGDSVK	GRSKGTFDS	6.3 µM	1/3
GFTLNSYGIS	VIYSDGRRTFYGDSVK	IRATGTFDE	2.8 µM	1/3
GFTLNSYGIS	VIYSDGRRTFYGDSVK	GRAIGTFSS	nd	0/3
GFTLNSYGIS	VIYSDGRRTNYADSVK	GRATGTFDS	160 nM	3/3
GFTLNSYGIS	VIYSDGRRTFYGDSVK	GRAQGTDVS	1.9 µM	1/3
GFTLNSYGIS	MIYSWGRRTFYGDSVK	GRAEGTFDS	nd	0/3
GFTLNSYHIS	VIYSDGRRTFYGDSVK	GRRKGTFDS	6.1 µM	1/3
GDTLNSYGIS	VIYGDGRRTFYGDSVK	GRADGTFDS	18 µM	3/3
GITLNSYGIS	VIYSDGRRTFYGDSVK	GRACGTFNS	nd	0/3
GFATNSYGIS	VIYSDGRRTFYGDSVK	GRAEGTFDS	46 µM	3/3
GFTLNSYGIS	VIYSDGRRTFYGDSVK	GRARSQFDS	nd	0/3
GFTLNSYGIS	VIYSDGRCTFYGDSVK	GRAKGTFDS	nd	0/3
GFTLNSYGIS	VIYSDGRRTFYGDSVK	GDAMHTFDS	9.6 nM	3/3
GFTLNSYGIS	VIYSRGRRTFYGDSVG	GRAVGTFDS	nd	0/3
GFTLNSYGNS	VIYSNGRRTFYGDSVK	GRAMGTFDS	nd	0/3
GFTLNSYGIS	VIRSDGRRTFYMDSVK	GRAQGTFDS	nd	0/3
GFTLNSYGIS	VIYSDGRRTFYGDSVS	GRATGTFDS	11 µM	1/3
GFTLNSYGIS	VIYSDGRRTFYGDSVK	DRANGTFDS	nd	0/3
GCTLNSAGIS	VIYSDGRRTFYGDSVK	GRASGTFDS	nd	0/3
GFTLNSYGIL	VIYSDGERTFYGDSVK	GRACGTFDS	nd	0/3
GFTLNSYGIS	VIYDDGTRTFYGDSVK	GRAWGTFDS	1.5 µM	1/3
GLTLNSYGIS	VIYSDGRRTFYGDSVK	GRAQGTFLS	nd	0/3
GFTLNSYGIS	VIYSDGRRQFYGDSVK	GRAEGTFDS	670 nM	1/3
GFTLNSYGIS	VSESDGRRTFYGDSVK	GRASGTFDS	220 µM	2/3
GFTLNSYGIS	VLYSDGRRMFYGDSVK	GRANGTFDS	86 µM	3/3
GFTLNSYGCS	VIYSDGRRTFYGDSVK	GRAQGTFDS	160 nM	1/3
GFTLNSYGIS	VIYSDGRRTFYGDSVK	GRCRGVFDS	66 nM	3/3
GFTLNSYGIS	TIYSDGRRTFYGDSVK	GRACGTFDS	nd	0/3
GFTLNSYGIS	VIYSDGRRTFIGDSVK	TRAIGTFDS	250 nM	2/3
GFTLNSYGIS	VIYSDGRRTFYGDSVH	GRAIGTFDS	28 nM	3/3
GFTLNSYGIS	VITSDGRRTFYGDSVK	GRASGTYDS	nd	0/3
GFTHNSYGIS	VIYSDGRRTFYGDSVK	GRAWGTFAS	8.9 µM	1/3
GFQLNSYGIS	VIYSDGRKTFYGDSVK	GRASGTFDS	nd	0/3
GFTLNSYCIS	VIYSDGRRTFYGDSVK	GRADGTFDS	nd	0/3
GFALNSYGIS	VIYSDGCRTFYGDSVK	GRACGTFDS	6.6 µM	1/3
GFTLNSYGIS	VIYSDGRRTFYGDSVK	GRAIITFDS	nd	0/3
GFTLNSYGIS	VLYSDGRRTHYGDSVK	GRAIGTFDS	nd	0/3
GFTLNSKGIS	VIYSDGRRTFYGDSVK	GNACGTFDS	nd	0/3
GFTLNSYGIS	VIYSHGRRTFRGDSVK	GRAIGTFDS	nd	0/3
GFRLNSYGIS	VIYSDGRRTFYGDSVK	GRAIGTFDS	nd	0/3
GTTLNSYGIS	VIYSDTRRTFYGDSVK	GRAVGTFDS	4.2 µM	1/3
GFQLNSYGIS	VIYSDGQRTFYGDSVK	GRAMGTFDS	3.0 nM	3/3
GFTLNSYGIS	VIYSWGRRTFYGPSVK	GRAVGTFDS	53 µM	1/3
GFTLNSYCIS	VIYSDGRRTFYGDSVG	GRACGTFDS	nd	0/3
GFTLHSYGIS	VIYSDGRRTTYGDSVK	GRAKGTFDS	850 nM	1/3
GFTLNSYGIS	VIYSDGRRTFYGDSVK	GRAFGTFKS	nd	0/3
GFTLNHYRIS	VIYSDGRRTFYGDSVK	GRAIGTFDS	21 µM	2/3
GFTLYSYGIS	VIYSDGRRTFYGDSGK	GRAKGTFDS	nd	0/3
GFTLNSNGIS	VIYSDGRRTFYGDSVK	GRAFMTFDS	47 nM	3/3
CFTLNSYGIS	VIYCDGRRTFYGDSVK	GRAMGTFDS	nd	0/3
GFTLNSYGIS	VIYSDGRRTFYGDSLK	GMAEGTFDS	3.4 µM	3/3
GFTLNSYGIS	VIYSHGRRSFYGDSVK	GRALGTFDS	nd	0/3
GFTLNSYGIG	VIYSDGRRTFYGDSVK	GRADGMFDS	nd	0/3
GFTLNSYGIN	VIYSDGRRWFYGDSVK	GRAIGTFDS	nd	0/3
GFTLNEYGIS	VIYSDGRRNFYGDSVK	GRAEGTFDS	nd	0/3
GFTLNSYGIS	VIYSDGRRTFYGDSVK	GRAIGTFDS	220 nM	3/3
GFTLNSYGIS	VILSDGWRTFYGDSVK	GRAGGTFDS	nd	0/3
GFTLNSYGIS	VIYSDGRRTFYGDSVK	GAANGTFDS	nd	0/3
GFTLNSYGIS	VIYSDGRRVCYGDSVK	GRAMGTFDS	39 µM	2/3
GFTLNSYGIS	VIYSDGRRTFYGDDVK	GRACGTFDS	710 µM	2/3
GFTLNSYGIS	VIYSDGRRTFYGDSVK	ERAEGTFQS	nd	0/3
GFTLNSYGIS	VIYSDGRRTLYGDSVK	GRADGTFDN	1.3 µM	1/3
GFTLNSYGIS	VIYSDQRRTFYGDSVK	GRANGTQDS	14 µM	1/3
GFTLNSYGIS	VIYSDGQRTFYGDSVK	GRAVGTFDS	100 nM	3/3